Data taken from patent US7524847B2, “Fused 1,3-dihydro-imidazole ring compounds” (Eisai R&D Management Co., Ltd., priority 2002, dated 2009).

The chains behind the UniProt entries cited, without tags or fusion partners. Where a name states a change or a piece, a line headed by the entry shows the natural chain unless it says otherwise.
UniProt P22411: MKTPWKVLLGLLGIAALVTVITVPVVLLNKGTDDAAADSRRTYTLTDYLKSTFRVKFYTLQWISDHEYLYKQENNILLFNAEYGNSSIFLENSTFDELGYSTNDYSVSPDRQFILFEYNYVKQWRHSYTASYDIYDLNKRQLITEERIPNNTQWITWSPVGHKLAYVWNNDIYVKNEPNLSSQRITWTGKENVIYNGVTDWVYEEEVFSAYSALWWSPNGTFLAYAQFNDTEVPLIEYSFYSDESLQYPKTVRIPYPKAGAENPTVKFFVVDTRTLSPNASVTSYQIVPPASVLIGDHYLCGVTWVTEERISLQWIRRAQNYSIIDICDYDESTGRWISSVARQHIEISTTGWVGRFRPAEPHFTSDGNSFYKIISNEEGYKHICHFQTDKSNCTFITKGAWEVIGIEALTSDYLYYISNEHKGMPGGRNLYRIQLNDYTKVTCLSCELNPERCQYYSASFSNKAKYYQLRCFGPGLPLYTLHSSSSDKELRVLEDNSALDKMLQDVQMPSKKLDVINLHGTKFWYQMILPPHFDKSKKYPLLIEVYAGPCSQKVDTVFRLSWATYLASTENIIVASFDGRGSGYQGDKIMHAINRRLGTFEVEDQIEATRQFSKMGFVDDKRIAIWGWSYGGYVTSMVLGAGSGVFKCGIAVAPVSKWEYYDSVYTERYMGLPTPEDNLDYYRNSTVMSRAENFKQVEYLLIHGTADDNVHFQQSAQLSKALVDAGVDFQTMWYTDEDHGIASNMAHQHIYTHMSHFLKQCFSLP

Target: T1, DPP-IV obtained from pig kidney (Sus scrofa, UniProt P22411)
T1 construct: DPP-IV obtained from pig kidney; from tissue; host or cells: pig kidney
Test: Measurement of DPPIV-inhibiting activity (in vitro experiment)
Format: biochemical
Protocol: DPP-IV obtained from pig kidney was dissolved in a reaction buffer (50 mM Tris-HCl pH7.4, 0.1% BSA) at 10 mU/mL, and 110 μL of this was used. 15 μL of the drug obtained from the aforementioned Examples was added, and this was incubated at room temperature for 20 minutes, and then 25 μL of a 2 mM solution of Gly-Pro-p-nitroanilide (final concentration 0.33 mM) was added to start the enzymatic reaction. The reaction time was 20 minutes, and 1 N phosphoric acid solution (25 μL) was added to stop the reaction.

Compound: N#Cc1ccc(NCCNCC(=O)N2CCC[C@H]2C#N)nc1 [Control compound, reference compound]
- IC50: 226 µM
